A short description of series [1]: Half-life of B1 peptide antagonists in rat plasma. The class given is in vivo. The text has this:
As mentioned, the compositions disclosed herein enable prophylactic, therapeutic, and/or diagnostic use of certain classes of active agents some of which were previously considered too unstable in vivo to be used effectively. For example, the known shortcomings in known B1 peptide antagonists with respect to their therapeutic use are surmountable by formulating them in compositions of the present invention that maximize antagonist activity and specificity while prolonging efficacious half-life in vivo. More specifically, the half-life of Peptide A (SEQ ID NO: 15), Peptide B (SEQ ID NO:37) and Peptide C (SEQ ID NO:36) is about 3 hours, 40 minutes, and 40 minutes, respectively, in rat plasma. The accelerated sustained release and/or extended circulating half-lives of the B1 peptides formulated as described herein results in a much more desirable exposure window and may provide better efficacy in vivo as compared to common formulations of these compounds.

The nature of series [2]: Plasma concentration-time profile after subcutaneous injection of microparticles into male Sprague-Dawley rats. The class given is in vivo, rat. The conditions noted are these: solution bolus of Peptide A.

As to “DOrn Lys Arg Pro Hyp Gly Cpg Ser DTic Cpg [Peptide A]”, the “half-life in rat plasma” value in series [1] is listed as “about 3 hours”. Also, the “release profile duration of Peptide A (plasma concentration-time profile)” value in series [2] was found to be 8 h. As to “LysLys Arg Pro Hyp Gly Cpg Ser DTic Cpg [Peptide C]”, the “half-life in rat plasma” value in series [1] is around 40 min.
